# The list shows a part of the results, in another mix than the full data. Some results for these compounds are left out of this collection, so the calls shown say nothing about other tests. Activity calls are given as the source filed them.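 The calls were made as follows, unless noted: active = membrane potential signal drops by more than 5 SD from the mean control signal, in both duplicate plates; inactive = the rest.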
# Sequences of proteins named here, by UniProt entry; tags and fusion partners are left off.
# UniProt Q61143, whole entry: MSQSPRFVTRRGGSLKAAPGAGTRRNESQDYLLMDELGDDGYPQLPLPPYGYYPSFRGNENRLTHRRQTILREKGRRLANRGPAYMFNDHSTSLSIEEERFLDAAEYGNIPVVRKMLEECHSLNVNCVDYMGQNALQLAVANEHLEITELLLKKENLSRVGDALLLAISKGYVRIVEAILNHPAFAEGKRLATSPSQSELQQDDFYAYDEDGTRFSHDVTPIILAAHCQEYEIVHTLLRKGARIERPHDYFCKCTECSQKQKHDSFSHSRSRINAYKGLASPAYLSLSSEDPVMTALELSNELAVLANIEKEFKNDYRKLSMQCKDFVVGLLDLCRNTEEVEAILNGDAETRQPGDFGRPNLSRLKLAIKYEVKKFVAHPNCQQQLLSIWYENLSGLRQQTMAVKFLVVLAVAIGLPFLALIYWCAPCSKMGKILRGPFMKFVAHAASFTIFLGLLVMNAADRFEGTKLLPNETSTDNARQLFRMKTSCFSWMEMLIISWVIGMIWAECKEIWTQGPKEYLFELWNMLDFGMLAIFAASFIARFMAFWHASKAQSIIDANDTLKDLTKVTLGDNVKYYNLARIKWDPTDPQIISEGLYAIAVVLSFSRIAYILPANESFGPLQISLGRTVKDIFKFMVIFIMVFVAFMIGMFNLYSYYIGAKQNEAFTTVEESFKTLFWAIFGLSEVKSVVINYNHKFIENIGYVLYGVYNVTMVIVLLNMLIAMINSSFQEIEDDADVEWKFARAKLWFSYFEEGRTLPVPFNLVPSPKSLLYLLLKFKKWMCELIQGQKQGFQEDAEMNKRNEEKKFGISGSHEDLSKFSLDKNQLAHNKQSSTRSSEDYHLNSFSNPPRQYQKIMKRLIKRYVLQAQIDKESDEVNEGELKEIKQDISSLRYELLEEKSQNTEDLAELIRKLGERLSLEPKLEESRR
# Key:
# [1] = membrane potential response modulators in host HEK293 cells – cell-based, second counter-screen, parental HEK293, membrane potential dye, counter-screen for TRPC6 modulator project, confirmation (AID 488926); conditions: parental HEK293, membrane potential dye fluorescence; at 10 µM; stronger effect = higher value; after compound, maximal acetylcholine stimulation;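 also: plate controls were acetylcholine ECmax control wells for no effect and buffer only wells for full effect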
# [2] = target: Short transient receptor potential channel 6 (Mus musculus) (UniProt Q61143); assay: TRPC6 blockade by TRPC4 inhibitor hits – cell-based, HEK293, membrane potential dye, duplicate, selectivity assay for TRPC4 inhibitor project, confirmation (AID 434948;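 active = active in primary screen and both duplicates, each dropping signal beyond three positive-control SD with fluorescence still positive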); conditions: HEK293 TRPC6, membrane potential dye fluorescence; at 10 µM; stimulated with maximal-effect acetylcholine
# Outline: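 Times: 45 min RT dye load, 110 s compound, 110 s agonist read | Assay system: HEK293 cells expressing mouse TRPC6 channel | Detection: Kinetic membrane potential dye fluorescence | Replicates: Duplicate testing | Read-out: Control-normalized integrated fluorescence ratio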
# [3] = target: Short transient receptor potential channel 6 (Mus musculus) (UniProt Q61143); assay: positive modulators of mouse TRPC6 channel – HEK293 cells, membrane potential dye, duplicate, selectivity assay for TRPC4 potentiator project, confirmation (AID 434952;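 active = compound raising the membrane signal above positive-control mean plus 3 SD in both repeats, and a primary screen hit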); conditions: HEK293 TRPC6, membrane potential dye fluorescence; at 10 µM; maximal acetylcholine added after compound
# [4] = nonspecific calcium rise without TRPC4 – cell-based, HEK293 mu-opioid receptor line, counter-screen for TRPC4 activator project, confirmation (AID 449723;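 active = hit in primary screen, with calcium signal over 5 SD above buffer well mean in both duplicates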;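 also: counter screen cells carry the mu-opioid receptor alone and lack TRPC4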); conditions: HEK293 mu-opioid cells, Fluo-4 calcium fluorescence; at 10 µM
# [5] = nonspecific potentiation of DAMGO calcium response – cell-based, HEK293 mu-opioid receptor line, counter-screen for TRPC4 allosteric potentiator project, confirmation (AID 449724;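 active = calcium signal rise more than 3 SD above the low-dose agonist control mean, in both duplicate plates and the primary screen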;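 also: HEK293 cells carrying mu-opioid receptor only with no TRPC4 channel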); conditions: HEK293 mu-opioid receptor cells, Fluo-4 calcium flux; at 10 µM; compound added before EC20 DAMGO stimulus
smiles,measurement,setting,value
CCN(CC)CC(C)C(C)OC(=O)C(O)(c1ccccc1)c1ccccc1 (stereo unspecified),inhibition,[1],active: 112%
CN(C)c1ccc(C(=O)NCC2(N(C)C)CCCCC2)cc1,outcome,[2],inactive
same,outcome,[3],inactive
same,outcome,[4],inactive
same,outcome,[5],inactive
CN1[C@@H]2CC[C@H]1CC(OC(=O)C(O)(c1ccccc1)c1ccccc1)C2 (stereo partly specified),inhibition,[1],active: 104%

# Source: PubChem BioAssay
